The text below walks through data of US20240261365A1, “POLYPEPTIDE ALBUMIN NANOPARTICLE, PREPARATION METHOD THEREFOR, AND APPLICATION THEREOF” (SUZHOU INSTITUTE OF NANO-TECH AND NANO-BIONICS (SINANO) , …, priority 2020, published 2024).

The test concerns 4T1 subcutaneous tumor. Description: tumor growth, 4T1 mouse subcutaneous tumor model. The test is classed as in vivo, BALB/c mice. The conditions noted are these: 100 μL of 500 μM, tail vein, 4 consecutive days. The protocol: 10^6 4T1 cells were implanted subcutaneously into the backs of adult female BALB/c mice at the age of six weeks to construct a mouse subcutaneous tumor model. When the volume of tumor reached 50-60 mm^3, the mice were divided into 4 groups, five mice in each group, and 100 μL of PBS and HSA, Ir-cR8 and Ir-cR8-HSA nanoparticles (500 μM) were injected into tail veins for 4 consecutive days, separately. The tumor growth of each mouse was observed.

In the case of “HSA: human serum albumin, carrier protein injected alone as a control group”, the tumor inhibitory effect entry is on record as “cannot effectively inhibit the tumor growth”.
